According to patent US20060079453A1, “Hla binding peptides and their uses” (priority 2002, published 2006):
Like-named read-outs stand apart in the source and are kept apart here.

Amino acid sequences for entries named in this document (tags omitted). Residues count along the entry.
UniProt P79483, 30-266: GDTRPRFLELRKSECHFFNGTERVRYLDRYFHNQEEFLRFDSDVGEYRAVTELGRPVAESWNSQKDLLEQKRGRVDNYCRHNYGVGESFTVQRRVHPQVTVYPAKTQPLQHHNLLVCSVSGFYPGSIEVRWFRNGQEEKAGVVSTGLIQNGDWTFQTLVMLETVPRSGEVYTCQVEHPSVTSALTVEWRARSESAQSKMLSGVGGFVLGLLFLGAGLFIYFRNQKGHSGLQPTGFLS
UniProt Q30154, 30-266: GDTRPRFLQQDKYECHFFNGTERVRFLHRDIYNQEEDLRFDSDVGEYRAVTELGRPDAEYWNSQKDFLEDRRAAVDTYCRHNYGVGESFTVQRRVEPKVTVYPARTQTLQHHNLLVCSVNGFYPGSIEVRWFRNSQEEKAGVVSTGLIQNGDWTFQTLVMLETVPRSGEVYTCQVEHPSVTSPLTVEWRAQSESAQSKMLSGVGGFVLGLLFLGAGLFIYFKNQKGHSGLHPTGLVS

Tests used:
Test in all cases: biochemical
Format in all cases: binding
[1] = molecular target: HLA-DR DRB1*1101 (DR11) (Homo sapiens, UniProt P01903+P01911, A100R/A169T/A87E/I96F/K41T/L162R/M171V/P40S/Q125H/Q178H/Q39Y/Q99D/R42S/S66Y/T262R/V115G/W38E)
[2] = molecular target: HLA-DR DRB1*1302 (DR13) (Homo sapiens, UniProt P01903+P01911, A100E/A169T/K41T/L162R/M171V/P40S/Q125H/Q178H/Q39Y/Q99D/R42S/S66N/T262R/V115G/W38E/Y61H)
[3] = molecular target: HLA-DR DRB1*0101 (DR1) (Homo sapiens, UniProt P01903+P01911, A100R/D57E/F55L/F60I/F76Y/I96L/L162R/M171V/P40L/Q125E/R42F/V115G/Y59C); details: DRB1 *0101
[4] = molecular target: HLA-DR DRB1*0701 (DR7) (Homo sapiens, UniProt P01903+P01911, A100R/A102G/A103Q/D57E/D86V/E43K/F76Y/K127E/L162R/M171V/P40G/Q125H/Q99D/R33Q/R42Y/R54Q/S133A/S66F/T210M/V115G/Y107V/Y59L/Y89S); details: DRB1 *0701
[5] = molecular target: HLA-DR DRB4*0101 (DR53) (Homo sapiens, UniProt P01903+P13762, G164S)
[6] = molecular target: HLA-DR DRB1*1501 (DR15) (Homo sapiens, UniProt P01903+P01911)
[7] = molecular target: HLA-DR DRB1*0401 (DR4) (Homo sapiens, UniProt P01903+P01911, A100K/A169T/F76Y/I96L/K127E/L162R/M171V/N62H/P40V/Q125Y/R42H/S133A/S149N/S66Y/V115G/V209L/W38E); details: DRB1 *0401
[8] = molecular target: HLA-DR DRB1*0405 (DR4) (Homo sapiens, UniProt P01903+P01911, A100R/A169T/D86S/F76Y/I96L/K127E/L162R/M171V/N62H/P40V/Q125Y/R42H/S133A/S149N/S66Y/V115G/V209L/W38E); details: DRB1 *0405
[9] = molecular target: HLA-DR DRB3*0101 (DR52) (Homo sapiens, UniProt P01903+P79483)
[10] = molecular target: HLA-DR DRB1*0301 (DR3) (Homo sapiens, UniProt P01903+P01911, A100K/A102G/A103R/A169T/F55Y/I96L/K41T/L162R/M171V/P40S/Q125H/Q178H/Q39Y/R42S/S66N/T106N/T262R/W38E/Y61H)
[11] = molecular target: HLA-DR DRB5*0101 (DR51) (Homo sapiens, UniProt P01903+Q30154)
[12] = molecular target: HLA-DR DRB1*0901 (DR9) (Homo sapiens, UniProt P01903+P01911, A100R/A103E/D57H/D86V/F55Y/F60I/F76Y/I96F/K127E/L162R/M171V/P40D/Q125H/Q99R/R33Q/R42F/S133A/S66N/T210M/V115G/W38K/Y107V/Y59G/Y89S); details: DRB1 *0901
[13] = molecular target: HLA-DR DRB1*0802 (DR8) (Homo sapiens, UniProt P01903+P01911, A100R/A103L/A169T/F76Y/H45Y/I96F/K41T/L162R/M171V/P40S/Q125H/Q178H/Q39Y/Q99D/R218S/R42G/S66Y/V115G/W38E)

Row | Compound | IC50 ([1]; DRB1 *1101) | IC50 ([2]; DRBI *1302) | IC50 [3] | IC50 [4] | IC50 ([5]; DRB4 *0101) | IC50 ([6]; DRBI *1501) | IC50 [7] | IC50 [8] | IC50 [9] | IC50 [10] | IC50 ([11]; DRB5 *0101) | IC50 [12] | IC50 ([1]; read-out: DRB1 *1101) | IC50 ([9]; read-out: DRB3 *0101) | IC50 ([2]; read-out: DRBI *1302) | IC50 ([11]; read-out: DRB5 *0101) | IC50 ([5]; read-out: DRB4 *0101) | IC50 ([6]; read-out: DRBI *1501) | IC50 [13]
1 | CC(C)C[C@H](NC(=O)[C@H](C)NC(=O)[C@H](CCC(N)=O)NC(=O)CNC(=O)[C@H](CCCNC(=N)N)NC(=O)[C@H](CC(C)C)NC(=O)[C@@H](NC(=O)[C@H](C)NC(=O)[C@H](CCC(=O)O)NC(=O)[C@@H](N)CO)C(C)C)C(=O)N[C@@H](CC(C)C)C(=O)N[C@H](C(=O)N[C@@H](CC(N)=O)C(=O)N[C@@H](CO)C(=O)N[C@@H](CO)C(=O)O)C(C)C | 3.48 µM | 0.0074 µM | 0.011 µM | 1.09 µM | 0.023 µM | 0.151 µM | 2.06 µM | 17.4 µM | 4 µM | – | – | – | – | – | – | – | – | – | –
2 | CC[C@H](C)[C@H](NC(=O)[C@H](Cc1ccc(O)cc1)NC(=O)[C@H](C)NC(=O)[C@H](CCC(=O)O)NC(=O)[C@H](CCC(=O)O)NC(=O)[C@H](Cc1ccccc1)NC(=O)[C@H](CCC(=O)O)NC(=O)[C@H](CCC(N)=O)NC(=O)[C@H](Cc1ccc(O)cc1)NC(=O)[C@@H](NC(=O)[C@H](CC(=O)O)NC(=O)[C@H](Cc1ccccc1)NC(=O)[C@H](C)NC(=O)[C@H](CC(C)C)NC(=O)[C@@H](N)CCC(N)=O)[C@@H](C)O)C(=O)O | – | 15.2 µM | – | 2.58 µM | 11.5 µM | 23.2 µM | – | 5.4 µM | 0.595 µM | 7.98 µM | – | – | – | – | – | – | – | – | –
3 | CC(C)C[C@H](NC(=O)[C@H](C)NC(=O)[C@H](CCC(N)=O)NC(=O)CNC(=O)[C@@H](N)CCCNC(=N)N)C(=O)N[C@@H](CC(C)C)C(=O)N[C@H](C(=O)N[C@@H](CC(N)=O)C(=O)N[C@@H](CO)C(=O)N[C@@H](CO)C(=O)N[C@@H](CCC(N)=O)C(=O)N1CCC[C@H]1C(=O)N[C@@H](Cc1c[nH]c2ccccc12)C(=O)N[C@@H](CCC(=O)O)C(=O)N1CCC[C@H]1C(=O)O)C(C)C | – | 0.0034 µM | 1.12 µM | – | 1.55 µM | 2.88 µM | 1.7 µM | 3.43 µM | 6.17 µM | – | 0.558 µM | 8.45 µM | – | – | – | – | – | – | –
4 | VDAQGTLSKIFKLGGRDSRS | – | – | – | – | – | – | – | – | – | – | – | – | 0.018 µM | 0.769 µM | – | – | – | – | –
5 | VLERYLLEAKEAENI | – | – | – | – | – | – | – | – | – | – | – | – | – | 0.34 µM | 0.881 µM | 6.71 µM | 8.92 µM | 0.269 µM | –
6 | CC[C@H](C)[C@H](NC(=O)[C@@H](NC(=O)[C@H](CCC(=O)O)NC(=O)[C@H](CC(N)=O)NC(=O)[C@H](Cc1c[nH]c2ccccc12)NC(=O)CNC(=O)[C@@H](NC(=O)[C@H](CO)NC(=O)[C@H](CO)NC(=O)[C@H](CO)NC(=O)[C@H](CC(=O)O)NC(=O)[C@H](CCC(N)=O)NC(=O)[C@@H](N)CCCNC(=N)N)[C@@H](C)O)[C@@H](C)O)C(=O)N[C@H](C(=O)N[C@@H](CCC(=O)O)C(=O)O)C(C)C [RQDSSSTGWNETIVE] | – | 0.848 µM | – | – | 1.5 µM | – | 4.64 µM | – | 9.17 µM | – | 8.65 µM | 9.07 µM | – | – | – | – | – | – | 15.1 µM
7 | CC(C)C[C@H](NC(=O)CN)C(=O)N[C@@H](CCCNC(=N)N)C(=O)N[C@@H](CO)C(=O)N[C@@H](CC(C)C)C(=O)N[C@H](C(=O)N[C@H](C(=O)N[C@@H](CC(C)C)C(=O)N[C@@H](CC(C)C)C(=O)N[C@@H](CCCNC(=N)N)C(=O)N[C@@H](C)C(=O)N[C@@H](CC(C)C)C(=O)NCC(=O)N[C@@H](C)C(=O)N[C@@H](CCC(N)=O)C(=O)O)[C@@H](C)O)[C@@H](C)O | 0.0037 µM | 0.871 µM | 0.0085 µM | – | – | – | 0.024 µM | 0.03 µM | 12.9 µM | 2.35 µM | 0.0027 µM | – | – | – | – | – | – | – | 0.014 µM
8 | LVNSSQPWEPLQLHV | – | – | – | – | – | – | – | – | – | – | – | – | – | 18 µM | 0.504 µM | 10 µM | 3.41 µM | 2.36 µM | –
9 | CC[C@H](C)[C@H](NC(=O)[C@H](CC(N)=O)NC(=O)[C@H](CCC(=O)O)NC(=O)[C@H](CC(N)=O)NC(=O)[C@H](CC(C)C)NC(=O)[C@H](CO)NC(=O)[C@H](CS)NC(=O)[C@H](Cc1c[nH]cn1)NC(=O)[C@@H](N)CCC(=O)O)C(=O)N[C@H](C(=O)N[C@H](C(=O)N1CCC[C@H]1C(=O)N[C@@H](CC(=O)O)C(=O)N[C@H](C(=O)N[C@@H](CCCCN)C(=O)O)[C@@H](C)O)C(C)C)[C@@H](C)O | – | 0.084 µM | 9.84 µM | – | – | 12 µM | 2.29 µM | 1.2 µM | 8.31 µM | – | 6.63 µM | – | – | – | – | – | – | – | 6.19 µM
10 | CC[C@H](C)[C@H](NC(=O)[C@@H](NC(=O)[C@@H]1CCCN1C(=O)[C@@H](N)Cc1ccccc1)[C@@H](C)O)C(=O)N1CCC[C@H]1C(=O)N[C@@H](CC(C)C)C(=O)N[C@@H](CO)C(=O)N[C@@H](CCCNC(=N)N)C(=O)N[C@@H](CC(C)C)C(=O)N[C@@H](Cc1ccccc1)C(=O)N[C@@H](CC(=O)O)C(=O)N[C@@H](CC(N)=O)C(=O)N[C@@H](C)C(=O)N[C@@H](CO)C(=O)N[C@@H](CC(C)C)C(=O)O | – | 7.49 µM | 8.07 µM | – | 0.194 µM | 1.39 µM | 0.228 µM | 7.21 µM | 2.58 µM | – | 5.8 µM | 9.88 µM | – | – | – | – | – | – | 4.97 µM
11 | CC[C@H](C)[C@H](NC(=O)[C@H](CCC(N)=O)NC(=O)CNC(=O)[C@@H](NC(=O)[C@H](CCCNC(=N)N)NC(=O)[C@@H]1CCCN1C(=O)[C@H](CO)NC(=O)CNC(=O)[C@H](CC(=O)O)NC(=O)[C@H](CCC(=O)O)NC(=O)[C@H](CC(C)C)NC(=O)[C@@H](N)CCCNC(=N)N)[C@@H](C)O)C(=O)N[C@@H](Cc1ccccc1)C(=O)N[C@@H](CCCCN)C(=O)N[C@@H](CCC(N)=O)C(=O)O | 7.9 µM | – | – | – | – | 9.11 µM | 7.91 µM | – | 18.1 µM | – | 12.6 µM | – | – | – | – | – | – | – | –
12 | CC[C@H](C)[C@H](NC(=O)[C@H](CCC(=O)O)NC(=O)[C@H](CCC(=O)O)NC(=O)[C@@H]1CCCN1C(=O)[C@@H](NC(=O)[C@H](CC(=O)O)NC(=O)[C@H](Cc1ccccc1)NC(=O)[C@H](CC(N)=O)NC(=O)[C@@H](N)CCCNC(=N)N)[C@@H](C)CC)C(=O)N[C@@H](CCCCN)C(=O)N[C@@H](CCC(N)=O)C(=O)N[C@@H](CC(C)C)C(=O)N[C@@H](CCC(N)=O)C(=O)N[C@@H](CCC(N)=O)C(=O)N[C@@H](Cc1ccccc1)C(=O)O | – | – | – | – | 0.311 µM | 2.04 µM | – | – | 23.8 µM | – | 6.85 µM | – | – | – | – | – | – | – | –
13 | CSCC[C@H](NC(=O)[C@H](CCCNC(=N)N)NC(=O)[C@H](CCCCN)NC(=O)CNC(=O)[C@H](CCCNC(=N)N)NC(=O)[C@@H](NC(=O)[C@H](Cc1ccccc1)NC(=O)[C@H](CC(=O)O)NC(=O)[C@H](CCC(=O)O)NC(=O)[C@H](CCCCN)NC(=O)[C@H](CCC(=O)O)NC(=O)[C@@H](N)CC(C)C)[C@@H](C)O)C(=O)N[C@@H](CO)C(=O)N[C@@H](CO)C(=O)N[C@@H](CC(C)C)C(=O)O | 0.698 µM | 25.4 µM | 22 µM | 0.946 µM | 16.1 µM | 14.1 µM | – | 5.69 µM | 6.27 µM | – | 4.9 µM | – | – | – | – | – | – | – | 0.804 µM
